Bioassay records from PubChem BioAssay.
Sampled rows, rich in hits. Any-hit rate of the full collection: about 2.8%.
UUG fidelity: alters start codon recognition fidelity in yeast; S. cerevisiae UUG-firefly luciferase reporter, luminescence/redox ratio; activity score, % at 18.7 µM; actives 0.13% (n = 350,000); AID 602363;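 active = replicate mean at a twofold rise or more, about +100% in these data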;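 also: firefly luciferase made from a UUG start codon reports start codon fidelity; reporter light over untreated wells divided by growth signal over untreated wells; some hits fall short of that in this replicate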
esBAF inh: Bmi1 luciferase reporter increase in mESCs, primary screen, esBAF inhibitor project, mouse ES cells, Bmi1 luciferase knock-in, single point; 24 h; 100% = twice the neutral-well signal; reporter increase, % at 12.5 µM; 2% of 350,000 active; in the data active means activation above about 40%; inconclusive means no clear call, values can overlap the other calls;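 further: a rise in the Bmi1 reporter signal indicates esBAF inhibition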
PglD inh: C. jejuni PglD acetyltransferase inhibitors, primary screen, biochemical, DTNB colorimetric, single point | UDP-N-acetylbacillosamine N-acetyltransferase PglD (Campylobacter jejuni) | purified PglD enzyme, DTNB colorimetric CoA detection | inhibition, % at 12.5 µM | 0.098% of 360,000 active; in the data active means inhibition above about 16%, passing the limit was not always enough; inconclusive means no clear call, values can overlap the other calls
miR122 inh: miR-122 Renilla sensor signal increase in Huh7, primary screen, miR-122 inhibitor project, cell-based, single point, plate reader | Huh7 miR-122 Renilla luciferase sensor, 48 h; neutral wells = 0, positive control = 100 | AID 602342, 2012 | activation (reporter increase), % at 12.5 µM | 0.3% of 340,000 active;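 active means mean replicate activation score at least 90 and every replicate individually at or above 90; inconclusive means only one of the two criteria met; inactive means neither criterion met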;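 further: higher luciferase means less miR-122 activity so hits act as miR-122 inhibitors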
MITF act: activators of MITF-driven TRPM1 promoter reporter, primary screen, cell-based, SK-MEL-5, luciferase, single point; 0.75% of 300,000 active; SK-MEL-5 TRPM1-promoter luciferase, 24 h; % of positive control, neutral wells = 0; activation, % at 12.5 µM; AID 588334, 2011;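 active means mean activation of at least 80% with every replicate also reaching 80%; inconclusive means mean reaches 80% but some replicate falls short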
Wnt bcat act: Wnt/beta-catenin pathway activators, primary screen, cell-based, plate reader, single point. 1.2% of 300,000 active. activation, % at 9.35 µM. Wnt/beta-catenin reporter cell assay, activator; in the data active means activation above about 30%, passing the limit was not always enough; inconclusive means no clear call, values can overlap the other calls
Of the large screens only hits and unclear results are named; the others gave an inactive call.

O=C(Nc1ccccc1)c1cccc2c(-c3cccnc3)coc12	esBAF inh 55.3 (no result: miR122 inh, MITF act)
C[C@H]1C=C(C(=O)NCc2ccccc2)O[C@@H](OCc2ccc(CO)cc2)C1	Wnt bcat act 47.8 (no result: miR122 inh)
CCN1CCN(Cc2c3ccccc3cc3ccccc23)CC1	Wnt bcat act 48.7
O=C1S/C(=C\c2cccs2)C(=O)N1c1ccc(O)cc1	esBAF inh 50.1, MITF act 98.0, Wnt bcat act 43.6
O=C1/C(=C/c2cccs2)SC(=S)N1c1ccccc1	none
COc1ccc(C(=O)/C=C/Nc2cccc(C)n2)cc1OC	esBAF inh 46.7, MITF act 93.4 (no result: miR122 inh, Wnt bcat act)
COc1ccc(CCNC(=O)c2nonc2N)cc1	esBAF inh 47.7 (no result: MITF act)
COc1cccc(CNCCNC(=O)c2nonc2N)c1	none
Cc1noc(C)c1COc1cccc(C(=O)Nc2ccc(Br)cc2F)c1	none (no result: miR122 inh)
CC(C)Oc1cccc(C(=O)Nc2ccc(Br)cc2F)c1	MITF act 101.2 (no result: UUG fidelity, esBAF inh, PglD inh, miR122 inh)
Cc1occc1C(=O)Nc1ccc(Br)cc1F	esBAF inh 45.8, Wnt bcat act inconclusive
C[C@H]1CN([C@@H](C)CO)C(=O)c2cc(C#CC3CCCC3)cnc2O[C@@H]1CN(C)C(=O)C1CCCCC1	none (no result: MITF act, Wnt bcat act)
O=C(Nc1cccnc1Cl)c1cc2ccccc2o1	Wnt bcat act 49.0 (no result: miR122 inh)
CCOC(=O)c1ccccc1NC(=O)c1cc2ccccc2o1	none
Cc1cccc(NC(=S)NC(=O)c2ccc(-c3ccccc3)cc2)n1	none
Cc1cccc(NC(=S)NC(=O)c2oc3ccccc3c2C)n1	esBAF inh 49.2
CCOC(=O)c1ccc(NC(=O)c2cc3ccccc3o2)cc1	MITF act 110.6 (no result: Wnt bcat act)
CCOC(=O)c1cccc(NC(=O)c2cc3ccccc3o2)c1	esBAF inh 46.0 (no result: MITF act)
Cc1noc(C)c1NC(=O)N(C)C[C@@H]1OCCCC[C@H](C)Oc2ccc(NC(=O)C3CCCCC3)cc2C(=O)N([C@H](C)CO)C[C@H]1C	none (no result: MITF act, Wnt bcat act)
COCC(=O)Nc1ccc2c(c1)OC[C@H](C)N(Cc1cncnc1)C[C@H](C)[C@H](OC)CN(C)C2=O	none (no result: UUG fidelity, PglD inh, MITF act, Wnt bcat act)
Cc1cccc(NC(=O)c2cc3ccccc3c(=O)o2)n1	Wnt bcat act 51.5
COc1ccc(Cl)cc1C(=O)Nc1ccc(NC(C)=O)cc1	none (no result: UUG fidelity, esBAF inh, PglD inh, miR122 inh)
Cc1nc(NC(=O)c2cc3ccccc3o2)ccc1Br	esBAF inh 69.0
Cc1nc(NC(=O)c2ccc(Br)o2)ccc1Br	none (no result: esBAF inh, miR122 inh)
COc1ccc(Cl)cc1C(=O)Nc1ccc(Br)c(C)n1	esBAF inh 60.7
Cc1cccc(NC(=O)c2cc3ccccc3o2)c1	esBAF inh 62.6, Wnt bcat act 41.6
COc1ccc(NC(=O)N(C)C[C@H]2Oc3c(NC(=O)c4nc5ccccc5s4)cccc3C(=O)N([C@H](C)CO)C[C@@H]2C)cc1	none (no result: MITF act, Wnt bcat act)
CC(=O)Nc1ccc2c(c1)C(=O)N(C)[C@@H]1CC[C@@H](CC(=O)NCc3ccccc3)O[C@H]1CO2	none (no result: MITF act, Wnt bcat act)
Cc1sc(=NC(=O)c2ccco2)n(C)c1-c1ccccc1	none (no result: UUG fidelity, PglD inh)
Cc1sc(=NC(=O)c2ccco2)n(C)c1-c1ccc(F)cc1	MITF act 100.6 (no result: UUG fidelity, esBAF inh, PglD inh, Wnt bcat act)
O=C(C[C@@H]1CC[C@H]2[C@@H](COC[C@@H](O)CN2S(=O)(=O)c2ccc(F)cc2)O1)NCC1CCCCC1	none (no result: MITF act, Wnt bcat act)
CCCCNc1c(-c2ccc(SC3CCCCC3)cc2)nc2ccccn12	Wnt bcat act 37.0
C[C@H](CO)N1C[C@H](C)[C@H](CN(C)Cc2ccc3c(c2)OCO3)Oc2c(NS(=O)(=O)c3ccc(Cl)cc3)cccc2C1=O	none (no result: MITF act, Wnt bcat act)
C[C@@H]1CN([C@H](C)CO)C(=O)c2cccc(NC(=O)Nc3ccc4c(c3)OCO4)c2O[C@@H]1CN(C)S(=O)(=O)c1ccc(Cl)cc1	none (no result: UUG fidelity, MITF act, Wnt bcat act)
O=c1[nH]c2c(s1)C=Nc1ccccc1N2	esBAF inh 54.0, Wnt bcat act inconclusive
Cc1cnn(C(=S)NCCc2ccccc2)c1	esBAF inh 45.7 (no result: MITF act, Wnt bcat act)
Cc1cnn(C(=S)NCc2ccc(Cl)cc2)c1	none (no result: UUG fidelity, esBAF inh, PglD inh, miR122 inh, MITF act)
C=CCN1C(=O)S/C(=C\c2ccc(N3CCOCC3)cc2C)C1=O	esBAF inh 73.3, Wnt bcat act 39.3 (no result: MITF act)
C[C@H]1CN([C@@H](C)CO)C(=O)Cc2cc(NC(=O)Cn3cnnn3)ccc2O[C@@H]1CN(C)Cc1ccc2c(c1)OCO2	none (no result: MITF act, Wnt bcat act)
CCOC(=O)c1cn[nH]c1NC(=S)Nc1ccc(Cl)cc1	Wnt bcat act 35.6 (no result: MITF act)
C=CS(=O)(=O)c1c2cc(OC)ccc2nc2ccc(OC)cc12	Wnt bcat act 458.2 (no result: UUG fidelity, esBAF inh, PglD inh, MITF act)
COc1ccccc1NC(=O)N[C@H]1CC[C@H](CCNS(=O)(=O)c2ccccc2)O[C@@H]1CO	none (no result: UUG fidelity, MITF act, Wnt bcat act)
Cc1ccc(NC(=O)Cn2nnc3ccccc32)cc1	none (no result: esBAF inh)
COC(=O)c1ccc(NC(=O)Cn2nnc3ccccc32)cc1	esBAF inh 71.1
Cc1cccc(NC(=O)Cn2nnc3ccccc32)c1	esBAF inh 63.2
O=C(Cn1nnc2ccccc21)Nc1ccc([N+](=O)[O-])cc1	none (no result: UUG fidelity, esBAF inh, PglD inh, miR122 inh)
CC(=O)Nc1ccc2c(c1)C(=O)N(C)[C@H]1CC[C@@H](CC(=O)Nc3cn(C)nc3C)O[C@@H]1CO2	none (no result: MITF act, Wnt bcat act)
CCOC(=O)CNC(=O)c1sc(NC(=O)c2ccccc2F)nc1C	esBAF inh 57.3 (no result: miR122 inh)
CC(=O)Cc1nsc(NC(=O)c2ccc(-c3cccc(C(F)(F)F)c3)o2)n1	none (no result: esBAF inh, Wnt bcat act)
CC(=O)Cc1nsc(NC(=O)c2cccc(F)c2)n1	esBAF inh 61.1 (no result: UUG fidelity, PglD inh, Wnt bcat act)
CCOC(=O)CNC(=O)c1sc(NC(=O)c2cccc(F)c2)nc1C	esBAF inh 54.1 (no result: Wnt bcat act)
C[C@H](CO)N1C[C@H](C)[C@@H](CN(C)S(C)(=O)=O)Oc2ccc(NS(C)(=O)=O)cc2C1=O	none (no result: MITF act, Wnt bcat act)
COc1cc(S(=O)(=O)N2CCOCC2)ccc1NC(=O)CSc1n[nH]c(=O)[nH]c1=O	miR122 inh 144.1 (no result: UUG fidelity, esBAF inh, PglD inh)
COC(=O)[C@@H](C)NC(=O)c1ccc2oc(CCc3ccccc3)nc2c1	esBAF inh 65.7, Wnt bcat act 38.0 (no result: MITF act)
COCC1CCN(C(=O)c2ccc3nc(Cc4cccc(Cl)c4)oc3c2)CC1	none (no result: MITF act)
CCOC(=O)N1CCN(C(=O)c2ccc3oc(CCCc4ccccc4)nc3c2)CC1	esBAF inh 80.9, Wnt bcat act 33.9
CCOC(=O)N1CCN(C(=O)c2ccc3nc(C)sc3c2)CC1	none (no result: esBAF inh, Wnt bcat act)
COCC1CCCN(C(=O)c2ccc3nc(Cc4cccc(Cl)c4)oc3c2)C1 (stereo not drawn)	esBAF inh 69.7
CCOC(=O)N1CCN(C(=O)c2ccc3c(c2)sc2nc(-c4ccccc4)cn23)CC1	esBAF inh 78.6 (no result: Wnt bcat act)
O=C(C[C@H]1CC[C@H]2[C@@H](COC[C@H](O)CN2C(=O)Cc2ccccc2)O1)NC1CCCC1	none (no result: UUG fidelity, MITF act, Wnt bcat act)
CC(C)NC(=O)N(C)C[C@H]1Oc2ncc(C#Cc3ccncc3)cc2C(=O)N([C@H](C)CO)C[C@@H]1C	none (no result: MITF act, Wnt bcat act)
